Earlier results as cited in patent US6225321A (priority 1997, dated 2001).
Structures can show the parent of a compound that is named as a salt.

Experiments:
[1] = tested on: human; details: in vivo; cited from earlier work
[2] = tested on: Mu receptor; details: Schmidt et al. 1985; cited from earlier work
[3] = tested on: Kappa receptor; details: Schmidt et al. 1985; cited from earlier work

CO[C@]12CC[C@@]3(C[C@@H]1[C@](C)(O)C(C)(C)C)[C@H]1Cc4ccc(O)c5c4[C@@]3(CCN1CC1CC1)[C@H]2O5 [Buprenorphine]
dose needed to elicit the same analgesic effect [1]: 0.3 mg

Oc1ccc2c3c1O[C@H]1[C@@H](O)CC[C@@]4(O)[C@@H](C2)N(CC2CCC2)CC[C@]314 [Nalbuphine]
action on Mu receptor [2]: antagonist
action on Kappa receptor [3]: agonist
addiction after continuous use [1]: no significant addiction
dose needed to elicit the same analgesic effect [1]: 10 mg

Oc1ccc2c3c1O[C@H]1[C@@H](O)CC[C@@]4(O)[C@@H](C2)N(CC2CCC2)CC[C@]314 [Nalbuphine hydrochloride]
duration of analgesic effect, clinical experience [1]: 4 to 5 days
